Molecular target: Human recombinant CETP (Homo sapiens, UniProt P11597)
Assay: Assay of CETP inhibition using purified components (reconstituted buffer assay): transfer of [3H]CE from HDL to LDL
Assay type: biochemical
Conditions: 2 hours at 37°C

Amino acid sequences for entries named in this document (tags omitted). Residues count along the entry.
UniProt P11597, 18-493 limits assumed: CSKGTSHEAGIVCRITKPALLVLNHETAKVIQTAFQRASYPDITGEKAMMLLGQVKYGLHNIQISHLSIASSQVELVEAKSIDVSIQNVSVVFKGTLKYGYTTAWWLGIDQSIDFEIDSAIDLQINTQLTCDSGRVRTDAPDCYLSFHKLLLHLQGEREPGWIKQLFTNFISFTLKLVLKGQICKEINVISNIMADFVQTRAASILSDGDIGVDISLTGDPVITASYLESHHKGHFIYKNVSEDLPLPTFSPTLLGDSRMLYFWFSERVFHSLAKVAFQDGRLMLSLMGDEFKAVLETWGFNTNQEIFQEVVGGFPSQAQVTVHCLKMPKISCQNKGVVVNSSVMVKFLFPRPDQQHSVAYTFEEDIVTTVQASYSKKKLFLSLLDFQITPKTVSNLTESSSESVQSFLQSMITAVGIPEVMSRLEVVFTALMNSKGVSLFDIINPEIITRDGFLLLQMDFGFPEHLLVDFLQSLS

Q: With `OC(CN(Cc1cccc(OC(F)(F)C(F)F)c1)c1cccc(Oc2ccccn2)c1)C(F)(F)F` (stereo not drawn) as the compound, how does the IC50 read?
A: > 100 µM

Q: For `OC(CN(Cc1cccc(Oc2cccc(C(F)(F)F)c2)c1)c1cccc(OC(F)(F)F)c1)C(F)(F)F` (stereo not drawn), which IC50 is on record?
A: 15 µM

Q: Which IC50 does the source give for `CC(C)Oc1cccc(CN(CC(O)COC(F)(F)C(F)F)c2cccc(Oc3ccccc3)c2)c1` (stereo not drawn) here?
A: 14 µM

Q: For `COc1ccc(Oc2cccc(CN(CC(O)C(F)(F)F)c3cccc(OC(F)(F)F)c3)c2)cc1` (stereo not drawn), which IC50 is on record?
A: 90 µM

Q: Which IC50 does the source give for `OC(CN(Cc1cc2c(cc1Cl)OCO2)c1cccc(OC(F)(F)F)c1)C(F)(F)F` (stereo not drawn) here?
A: 100 µM

Q: `OC(CN(Cc1cccc(Br)c1)Cc1cccc(OC(F)(F)F)c1)C(F)(F)F` (single isomer, unassigned) was tested. Which IC50 did it give?
A: 15 µM

Reference: EP1115693B9, “SUBSTITUTED POLYCYCLIC ARYL AND HETEROARYL $i([sequence])-HETEROALKYLAMINES USEFUL FOR INHIBITING CHOLESTERYL ESTER [sequence] PROTEIN ACTIVITY” (Monsanto Company, priority 1998, dated 2000)
